Here are results for 2 compounds from PubChem BioAssay AID651954 (NMMLSC, 2012).

Structures are written as SMILES. The entries are a selection whose mix differs from that of the whole data set. Activity calls are given as the source filed them. No stated cut-off is given here; in the data, active means inhibition above about 60%; inactive means the rest.

A short description of the assay: blockers of LAMP-1 surface exposure, TALL-104 – TALL-104 cells, flow cytometry, Cherry Pick01, confirmation (AID 651954).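 Further: 0% = stimulated vehicle wells and 100% = unstimulated wells.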 The settings on record: LAMP-1 externalization, at 10 µM, active compounds read high, stimulated with PMA plus thapsigargin.
On to `CCC1=CC2Cc3nc4ccc(Cl)cc4c(N)c3C(C1)C2` (configuration not stated), for which the inhibition was inactive: -8.36%.

As for `COc1ccc(C2=NCC(CBr)S2)cc1` (configuration not stated), the inhibition is inactive: -4.65%.
